This is an account of results in US12178871B2 (priority 2018, dated 2024).

Each structure is given as a SMILES string.

The subject of the assay is influenza virus subtype A mice-lung adaptive strain FM1. To be noted: mouse, in vivo.

`NC(=O)c1ncn([C@@H]2O[C@H](CO)[C@@H](O)[C@H]2O)n1` [Ribavirin] showed a Death rate % of 63%.
